Measured values published in patent US11459499B2, “Amidoamine-based gemini surfactant containing ethoxylate units and a method for oil recovery” (King Fahd University of Petroleum and Minerals, priority 2018, dated 2022).

Legend:
Type in all cases: physicochemical
[1] = Solubility and salt tolerance test in DW, SW and FW; conditions: 10 wt % solutions, 90° C. for 90 days
Source text: The solubility was monitored during this 90-day period.
The solubility results are outlined in Table 2.

[2] = Long-term heat stability by aging, then NMR and FT-IR; conditions: 10 wt % in SW and DW, 90° C. for 3 months
Procedure: The vials were left in the oven at 90° C. for 3 months. The samples were then taken out and subjected to NMR and FT-IR analysis after the aging.
The signals at δ 51.1 ppm indicated the existence of CH3 moieties connected with the quaternary ammonium head groups. Similarly, methylene moieties directly attached to the quaternary ammonium head groups were also observed at δ 62.1 ppm and δ 64.4 ppm. The overlapping peaks at δ70.0-71.5 ppm indicated the existence of ethylene oxide groups [—CH2—CH2—O—CH2—CH2—O—]. The peak at δ171.1 indicated the occurrence of the amide group. […] Signals at δ 3.22 ppm indicated the presence of CH3 moieties associated with the quaternary ammonium head groups. […] The broad peak at δ 7.99 ppm indicated the occurrence of the amide group. […] The amide I and amide II bands at 1654 cm^−1 and 1542 cm^−1, respectively were also observed. Moreover, the stretching mode of the ether moieties [—CH2—CH2—O—CH2—CH2—O—] was detected at 1110 cm^−1. Accordingly, proton and carbon NMR, as well as FT-IR spectra of the aged sample of 12-E2-12 matched well with the proposed structure of 12-E2-12.

[3] = Foam stability (DFA 100 foam analyzer); conditions: surfactant concentration 0.1%, ambient temperature; compared to commercial surfactants
Procedure: Foam analysis was performed using a DFA 100 foam analyzer (Kruss GmbH, Germany). A filter paper with a pore size of 16-40 μm was placed in the filter paper holder. The filter paper holder was then placed in a measuring column holder. A sample volume of 50 mL was placed carefully into the column with a syringe and a long needle. A measuring column with a prism was attached to the holder with the filter paper holder at the center. The LED and light sensors were 1 mm apart from the measuring column to ensure accurate foam height detection. A middle field of view set on the camera was used to get bubbles of intermediate sizes. Camera calibration was done with the dots imprinted at the top of the prism. The camera height was then set at 85 cm with the aid of the meter rule on the equipment to be close to the foam-liquid interface after calibration. Foam generation was done for 20 s using flowing air through the filter paper at a rate of 0.2 L/min.
The foamability and foam stability are two important properties to evaluate the performance of surfactants for foaming applications. All measurements were conducted at a fixed surfactant concentration (0.1%) at ambient temperature. The foamability of the synthesized surfactants was slightly smaller compared to the commercial surfactants. […]

Substance | solubility in FW and SW [1] | solubility in DW, SW and FW [1] | long-term heat stability after aging [2] | foam stability [3]
cationic poly(ethylene oxide) gemini surfactant [12-E1-12] | poorer solubility; also recorded: precipitate | – | – | –
cationic poly(ethylene oxide) gemini surfactant [12-E2-12] | – | stayed clear; also recorded: excellent solubility | good stability and no structure decomposition; also recorded: excellent long-term heat stability | significantly higher; also recorded: superior foaming properties

Entries after “also recorded” stand apart in the source; their conditions may differ.
